Protein sequences, listed by entry. Tags and fused reporters are not part of them. Lines headed by an entry give the natural chain unless they say otherwise; changes in a name come on top.
UniProt P35370: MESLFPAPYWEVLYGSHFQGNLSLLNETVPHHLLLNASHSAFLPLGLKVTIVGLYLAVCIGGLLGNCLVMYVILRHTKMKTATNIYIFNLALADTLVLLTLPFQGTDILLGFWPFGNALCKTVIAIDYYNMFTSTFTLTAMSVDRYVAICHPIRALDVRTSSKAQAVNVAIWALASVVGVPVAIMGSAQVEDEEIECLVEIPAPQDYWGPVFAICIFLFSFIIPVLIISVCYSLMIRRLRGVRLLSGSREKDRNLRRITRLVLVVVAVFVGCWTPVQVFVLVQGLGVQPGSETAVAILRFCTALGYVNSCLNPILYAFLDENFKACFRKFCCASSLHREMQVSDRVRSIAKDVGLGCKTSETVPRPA

According to patent US8877779B2 (priority 2007, dated 2014):

target: ORL-1 receptor (Rattus norvegicus, UniProt P35370); experiment: Food consumption increasing action in rat; details: oral administration in light period, food weight at 1, 2, 4 and 6 hr

Compound | food consumption in rats
CNC(=O)Cn1c(=O)n(C2CCN(C3CCCc4ccccc43)CC2)c2ccccc21 (stereo not drawn) | significantly increase food consumption
CNC(=O)Cn1c(=O)n(C2CCN([C@@H]3CCCc4ccccc43)CC2)c2ccccc21 | significantly increase food consumption
CNC(=O)Cn1c(=O)n(C2CCN(C3CCCc4c(C)cccc43)CC2)c2ccccc21 (stereo not drawn) | significantly increase food consumption
